The structures appear in SMILES notation. Only a part is listed here, and it is no random draw. Inconclusive results are not listed. The source made the active and inactive calls. The call rests on the fitted dose curve; in most records, active means well fitted inhibition curve with a large enough effect; inconclusive means small, poorly fitted or top-dose-only effect, or another doubt; inactive means no such curve, though single readings can be large or run the other way.
On the % scale 0 is the no-effect control and ±100 the full control effect.

The assay can be described thus: qHTS of GLP-1 Receptor Inverse Agonists: Cytotox Screen.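 Further: loss of luciferase light is scored as toxicity.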 Particulars: HEK293 cAMP-luciferase reporter cells, luminescence, 24 h; at 38.3 µM (top of the series). An excerpt:
The overall goal of this project was to develop a novel assay for discovering small molecule ligands for class B1 G protein-coupled receptors (GPCRs). Very few agonists (or inverse agonists) with generally weak activity for this entire group of physiologically important receptors are known to date. To establish proof-of-principle that this critical bottleneck can be overcome with a suitable screening approach, our studies focused on the class B1 receptor for glucagon-like peptide-1 (GLP-1R), a potential therapeutic target for diabetes and neurodegenerative disease.
The assay was developed using a cell-based functional readout. Toward this goal, stably transfected HEK293 cell clones were established that co-express (i) a cAMP-responsive luciferase reporter gene, and (ii) constitutively active GLP-1R that upon ligand interaction inhibit (inverse agonists) the luciferase activity. In addition, two control cell lines were developed: (i) one that express only the cAMP-responsive reporter gene to enable initial exclusion of GLP-1R independent effects of candidate probes; and (ii) one with the reported gene cloned with another constitutively active orphan receptor GPR119 to enable exclusion of GLP-1R independent inhibitor effects of candidate inverse agonists.
To that end, this assay was optimized for 1536-well format and screened against the MLSMR. Then the same collection was run in this cytotoxicity assay where inhibition was the undesired outcome.
NIH Molecular Libraries Probe Production Network [MLPCN]
NIH Chemical Genomics Center [NCGC]
PI Name: Martin Beinborn, Tufts Medical Center
Six ul of cell suspension (200 cells/uL in DMEM + 10% Nu serum + 1% pen-strep) is dispensed in a white solid 1536-well plate. The plates are incubated for 12 hours at 37 deg C at 5% CO2 followed by addition of 23 nL compounds. After 24 hr incubation at 37 deg C and 5% CO2, 3 uL of luciferase assay detection reagent is added. A luminescence read is obtained on the PerkinElmer Viewlux after 12 min incubation at room temperature.
Background: Quantitative high-throughput screening tests each substance at several concentrations.
As for `CC(C)(C)n1nnnc1C(c1cccc2ccccc12)N1CCC(n2c(=O)[nH]c3ccccc32)CC1` (stereo unspecified), the activity change, negative = inhibition is inactive: -0.945%.

Regarding `c1ccc(CN2CCC(Nc3ccccc3)CC2)cc1`, the activity change, negative = inhibition was inactive: -19.8%.

Regarding `O=c1[nH]c2ccccc2n1C1CCN(C(c2ccccc2)c2nnnn2C2CCCC2)CC1` (stereo unspecified), the activity change, negative = inhibition is inactive: -7.42%.

For the compound `O=C(NCC1(N2CCOCC2)CCCCC1)c1ccccc1`, the activity change, negative = inhibition is inactive: -1.18%.

In the case of `CN(C)C1(CNC(=O)c2cccc(C#N)c2)CCCCC1`, the activity change, negative = inhibition was inactive: -12.9%.

As to `CCOC(=O)C(CC)C1=NC(C)(C)Cc2ccccc21.O=[N+]([O-])c1cc([N+](=O)[O-])c(O)c([N+](=O)[O-])c1` (stereo unspecified), the activity change, negative = inhibition was inactive: -14.8%.

With `O=C(NCC1(N2CCOCC2)CCCCC1)c1ccc([N+](=O)[O-])cc1`, the activity change, negative = inhibition is inactive: -1.72%.

In the case of `CC(C)(C)OC(=O)N1CCC(N(C(=O)c2ccccc2)c2ccc(Cl)cc2)CC1`, the activity change, negative = inhibition was inactive: -9.85%.

Take `O=C(NCC1(N2CCOCC2)CCCCC1)c1ccccc1[N+](=O)[O-]`: the activity change, negative = inhibition was inactive: -7.28%.

As for `N#Cc1ccc(C(=O)NCC2(N3CCCCC3)CCCCC2)cc1`, the activity change, negative = inhibition is inactive: 2.52%.

`CCCCn1nnnc1C(c1cccc(OC)c1OC)N1CCC(n2c(=O)[nH]c3ccccc32)CC1` (stereo unspecified): the activity change, negative = inhibition is inactive: -27%.

`O=C(OC1CN2CCC1CC2)C1c2ccccc2C=Cc2ccccc21` (stereo unspecified): the activity change, negative = inhibition is inactive: -17.5%.

Regarding `O=C(O)c1cccc(Nc2c([N+](=O)[O-])cc([N+](=O)[O-])cc2[N+](=O)[O-])c1`, the activity change, negative = inhibition was inactive: -62%.

For `O=c1[nH]c2ccccc2n1C1CCN(C(c2cccs2)c2nnnn2C2CCCC2)CC1` (stereo unspecified), the activity change, negative = inhibition is inactive: -20.7%.

For `N/C(=N\O)c1c(N)no[n+]1[O-]`, the activity change, negative = inhibition was inactive: -13.3%.

Consider `CCOC(=O)N1CCC(Nc2ccc(C)cc2)CC1`, for which the activity change, negative = inhibition was inactive: 6.05%.

Turning to `COc1cccc(C(c2nnnn2C(C)(C)C)N2CCC(n3c(=O)[nH]c4ccccc43)CC2)c1OC` (stereo unspecified), the activity change, negative = inhibition was inactive: -11.7%.

As for `COc1ccc(C(=O)NCC2(N3CCOCC3)CCCCC2)cc1OC`, the activity change, negative = inhibition was inactive: 14.5%.

Regarding `O=c1[nH]c2ccccc2n1C1CCN(C(c2ccnc3ccccc23)c2nnnn2C2CCCC2)CC1` (stereo unspecified), the activity change, negative = inhibition was inactive: -11.8%.

Regarding `O=c1[nH]c2ccccc2n1C1CCN(C(c2cccs2)c2nnnn2C2CCCCC2)CC1` (stereo unspecified), the activity change, negative = inhibition was inactive: -23.4%.

In the case of `O=C(NCC1(N2CCOCC2)CCCCC1)c1cc(Br)ccc1Cl`, the activity change, negative = inhibition is inactive: -0.724%.

Consider `CCCCn1nnnc1C(c1ccccc1)N1CCC(n2c(=O)[nH]c3ccccc32)CC1` (stereo unspecified), for which the activity change, negative = inhibition was inactive: -17.9%.

Turning to `COc1cc(C(=O)NCC2(N3CCOCC3)CCCCC2)cc(OC)c1C`, the activity change, negative = inhibition was inactive: -4.39%.

As to `CN1CCC(Nc2ccc(Cl)cc2)CC1`, the activity change, negative = inhibition was inactive: -8.45%.

For the compound `CCC(CO)(C(=O)OC1CN2CCC1CC2)c1ccccc1` (stereo unspecified), the activity change, negative = inhibition is inactive: 18.4%.

For `COc1cccc(C(=O)N(c2cc(C)cc(C)c2)C2CCN(C(=O)OC(C)(C)C)CC2)c1`, the activity change, negative = inhibition is inactive: -3.99%.

On to `COc1cc(C(=O)NCC2(N3CCOCC3)CCCCC2)cc(OC)c1OC`, for which the activity change, negative = inhibition was inactive: -7.97%.

With `COc1cccc(C(c2nnnn2C2CCCC2)N2CCC(n3c(=O)[nH]c4ccccc43)CC2)c1OC` (stereo unspecified), the activity change, negative = inhibition is inactive: -22.9%.

Turning to `COc1cc(OC)cc(C(=O)NCC2(N3CCOCC3)CCCCC2)c1`, the activity change, negative = inhibition is inactive: -9.92%.

Consider `O=c1[nH]c2ccccc2n1C1CCN(C(c2cc3ccccc3o2)c2nnnn2C2CCCC2)CC1` (stereo unspecified), for which the activity change, negative = inhibition was inactive: -19.2%.

As for `CCCOc1ccc(C(=O)NCC2(N(C)C)CCCCC2)cc1`, the activity change, negative = inhibition was inactive: 1.84%.

With `CC(C)(C)OC(=O)N1CCC(Nc2ccccc2)CC1`, the activity change, negative = inhibition was inactive: 18.1%.

Regarding `NN(c1ccccc1)C1CCN(CCc2ccccc2)CC1`, the activity change, negative = inhibition was inactive: -13.8%.

In the case of `O=C(O)C1(Nc2ccccc2)CCN(Cc2ccccc2)CC1`, the activity change, negative = inhibition is inactive: -14.2%.

Consider `CCOc1ncccc1C(=O)NCC1(N2CCOCC2)CCCCC1`, for which the activity change, negative = inhibition is inactive: -3.86%.

Regarding `CN1CCC(Nc2ccc(F)c(Cl)c2)CC1`, the activity change, negative = inhibition was inactive: 0.183%.

For the compound `O=C(NCC1(N2CCCCC2)CCCCC1)c1ccco1`, the activity change, negative = inhibition is inactive: -1.65%.

With `CC(C)(C)c1ccc(C(=O)NCC2(N3CCOCC3)CCCCC2)cc1`, the activity change, negative = inhibition was inactive: -3.65%.

As for `CN(C)c1ccc(C(=O)NCC2(N3CCCCC3)CCCCC2)cc1`, the activity change, negative = inhibition was inactive: 1.17%.

Take `Cn1c(=O)[nH]cc(N(CCCl)CCCl)c1=O`: the activity change, negative = inhibition was inactive: -4.42%.

Take `Cc1ccccc1C(=O)NCC1(N(C)C)CCCCC1`: the activity change, negative = inhibition was inactive: 3.22%.

For `Cc1ccccc1NC1(C#N)CCN(Cc2ccccc2)CC1`, the activity change, negative = inhibition is inactive: -12.4%.

On to `COc1ccc(C(c2nnnn2C2CCCCC2)N2CCC(n3c(=O)[nH]c4ccccc43)CC2)cc1` (stereo unspecified), for which the activity change, negative = inhibition is inactive: 0.617%.

Take `CCN1CCC(Nc2cccc(F)c2)CC1`: the activity change, negative = inhibition is inactive: -14%.

As for `CC(C)(C)n1nnnc1C(c1ccnc2ccccc12)N1CCC(n2c(=O)[nH]c3ccccc32)CC1` (stereo unspecified), the activity change, negative = inhibition was inactive: -9.33%.

Regarding `Cc1ccc(NC2(C#N)CCN(Cc3ccccc3)CC2)cc1`, the activity change, negative = inhibition was inactive: 2.57%.

These data come from PubChem BioAssay AID624418 (National Center for Advancing Translational Sciences (NCATS), 2012).
